# scFv variants of Ab-14 (light chain) against a SARS-CoV-2 spike peptide

Target: peptide PDVDLGDISGINAS, taken from heptad repeat 2 (HR2) of SARS-CoV-2 spike.

Parent: Ab-14, a human scFv built as VH, three GGGGS repeats, VL. Only the CDRs of the light chain vary.
VH: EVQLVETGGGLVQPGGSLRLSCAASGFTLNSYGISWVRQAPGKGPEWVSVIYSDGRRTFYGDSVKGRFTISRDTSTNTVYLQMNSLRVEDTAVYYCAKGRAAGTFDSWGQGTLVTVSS
VL: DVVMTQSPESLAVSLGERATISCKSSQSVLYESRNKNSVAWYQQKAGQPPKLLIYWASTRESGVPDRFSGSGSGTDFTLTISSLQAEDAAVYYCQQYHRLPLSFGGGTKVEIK

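Phage display of a naive human antibody library on the peptide gave the parent. This is the validation round: designs drawn from the data on random variants, tested in the same kind of assay. Their group label is 14L_GP_HC (GP: Gaussian process model; HC: hill climbing; a sequence that several methods proposed may carry one label only). AlphaSeq pools MATa yeast showing the antibodies with MATalpha yeast showing the peptide. Pairs that bind mate more often; barcode pairs of the diploids are counted by sequencing. Scores were corrected for input abundance and mapped to Kd with protein pairs of known affinity run in the same pool. Each pool was mated in six replicate cultures.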

Variants are written as CDR1, CDR2 and CDR3 of the light chain (limits as in the source). Parent: KSSQSVLYESRNKNSVA, WASTRES, QQYHRLPLS.
Numbers give log10(Kd / nM), so 0 is 1 nM and 3 is 1 µM. Smaller is tighter.
The mean shown is taken over the replicates in which the pair was detected.
"n.d." means that the variant was in the library but no mating with the target was seen in that replicate; the authors take this as a sign of poor binding, and no number exists.
The parent sequence was in this pool as ten entries: three were never detected, three once, and four in most replicates, with averages from 0.34 to 2.37.

| CDR-L1 | CDR-L2 | CDR-L3 | log10 Kd (nM) by replicate | mean log10 Kd (nM) | empty controls |
|---|---|---|---|---|---|
| KSSLSGLYESRMKNSVA | EASTRES | QQYHRLPLS | 0.06 / 0.36 / 0.03 / -0.21 / -0.06 / 0.25 | 0.07 | 0/18 |
| KVLQSVMYESRNKNSVA | HASTRED | QQYHQLPLS | 1.00 / 0.81 / 0.66 / 0.54 / 0.82 / 0.95 | 0.80 | 2/18 (2.89) |
| KLLNSTLYESRQKNSVA | WASTRES | QQYHRLPLS | n.d. / 2.10 / n.d. / 2.15 / 1.78 / 1.88 | 1.98 | 3/18 (2.17) |
| KSSWSVLYESGNKNSVA | HASTRES | QQYHRLPLS | 0.58 / 0.52 / 0.50 / 0.73 / 0.91 / 0.59 | 0.64 | 1/18 (2.87) |
| KFSPSVLYESRMSNSVA | NASTRES | QQYHRLPLS | 0.57 / 0.18 / 0.25 / 0.14 / 0.38 / 0.58 | 0.35 | 2/18 (2.28) |
| KSSWSYLYESRNKNSVA | AASTRES | QQYHRLPLS | 0.71 / 0.98 / 0.56 / 0.88 / 0.95 / 0.95 | 0.84 | 1/18 (2.51) |
| KLSQSFLYESRWKNSVA | NASQRES | QQYHRLPLS | 0.19 / 0.27 / -0.43 / -0.40 / -0.02 / 0.64 | 0.04 | 0/18 |
| KSSWSVLMESRNKNSVA | DASTRSS | QQYHRLPLS | 0.25 / -0.16 / -0.06 / 0.01 / 0.44 / 0.43 | 0.15 | 0/18 |
| KVSQSWLKESRNKNSVA | EASTRCS | QQYHRLPLS | 0.72 / 0.79 / 0.95 / 1.07 / 0.47 / 0.78 | 0.80 | 1/18 (2.66) |
| KYYPSGLYESRNKNSVA | QASTRES | QQYHLLPLS | 0.12 / 0.08 / -0.13 / 0.05 / -0.14 / 0.20 | 0.03 | 2/18 (3.27) |
| KLQQQWLYESRNKNSVA | SASTRSS | QQYHRLPLS | -0.12 / -0.22 / -0.29 / -0.27 / -0.40 / -0.35 | -0.28 | 0/18 |
| KSLQMQEYESRNKNSVA | HASTRED | QQYHRLPLS | 0.17 / 0.18 / 0.33 / 0.63 / 0.46 / 0.71 | 0.41 | 0/18 |
| KSSQSDLYESRNKNSVA | GASFRES | QQYHRLPLS | 0.38 / 0.12 / 0.00 / -0.05 / 0.16 / 0.05 | 0.11 | 2/18 (2.18) |
| KMEQGVDYESRNKNSVA | GASTRES | QQYHRLPLS | -0.19 / -0.40 / -0.43 / -0.42 / -0.33 / -0.06 | -0.31 | 1/18 (2.75) |
| HSSPSVNYESRNKNSVA | NASTRES | QQYHRLPLS | -0.25 / -0.18 / -0.14 / 0.07 / -0.22 / -0.15 | -0.14 | 1/18 (2.35) |
| KSSQSFLYESRNKNSVA | GASTRES | QTYHRLPLS | 0.53 / 0.31 / 0.96 / 0.81 / 0.99 / 0.65 | 0.71 | 0/18 |
| KSDQGVLYESRVKNSVA | GASTRES | QQYHRLPLS | 0.56 / 0.56 / 0.55 / 0.73 / 0.34 / 0.61 | 0.56 | 1/18 (3.15) |
| KSSQVNLYESRNKNSVA | GASTRES | QQYHRLPLS | 0.06 / 0.32 / 0.04 / -0.16 / -0.19 / 0.02 | 0.01 | 1/18 (4.37) |
| KSGCGGLYESRNKNSVA | GASTRES | QQYHRLPLS | -0.26 / -0.52 / -0.44 / -0.56 / -0.43 / -0.39 | -0.44 | 2/18 (2.76) |
| KVLQSVQYEGRNKNSVA | HASTRED | QQYHRLPLS | 0.17 / 0.11 / 0.06 / -0.01 / -0.03 / 0.00 | 0.05 | 0/18 |
| KSSGSVLYESMNKNSVA | EASTRES | QQYHRLPLS | 0.57 / 0.44 / 0.42 / 0.03 / 0.24 / 0.49 | 0.36 | 0/18 |
| KVSQSCLMESRNKNSVA | EASTRES | QQYHRLPLS | n.d. / 0.07 / -0.47 / 0.27 / 0.90 / 1.19 | 0.39 | 0/18 |
| KSSMSYLYESRNENSVA | EASTREQ | QQYHRLPLS | 0.04 / -0.15 / -0.09 / 0.00 / 0.00 / 0.04 | -0.03 | 1/18 (4.51) |
| KFLQSVLYESRNKNSVA | HASTRED | QQYHQLPLS | 0.93 / 1.00 / 0.86 / 0.95 / 0.73 / 0.79 | 0.88 | 0/18 |
| HSSISVAYESRNKNSVA | NASTRES | QQYHRLPLS | 0.82 / 0.53 / 0.45 / 0.36 / 0.58 / 0.65 | 0.56 | 0/18 |
| KVSQSVLYESGTKNSVA | NASQRES | TQYHRLPLS | 0.26 / 0.31 / 0.14 / 0.34 / 0.21 / 0.32 | 0.27 | 3/18 (2.68) |
| KSSQSVLMESRNWNSVA | DASTRES | QQYHRLPLS | 0.30 / 0.22 / 0.01 / 0.01 / 0.00 / 0.09 | 0.11 | 0/18 |
| KSSISYLYESVNKNSVA | EASTRES | QQYHRLPLM | 0.21 / -0.03 / -0.11 / -0.08 / -0.20 / 0.07 | -0.02 | 2/18 (1.36) |
| KFSPSYLYESRTKNSVA | NASTRES | QQYHRLPLS | 0.14 / -0.10 / -0.17 / -0.25 / -0.05 / 0.04 | -0.07 | 1/18 (3.46) |
| KLRQSTLYESRNKNSVA | TASTRLS | QQYHRLPLS | 1.33 / 0.78 / 1.08 / 0.94 / 1.23 / 1.46 | 1.14 | 3/18 (2.18) |
| KLSQSWGYESRNKNSVA | GASTRES | QQYHRLPLS | -0.05 / 0.01 / -0.06 / -0.08 / 0.09 / 0.24 | 0.03 | 3/18 (3.07) |
| KLSQSFLYESRNKNSVA | GASTRES | QEYHRLPLS | 0.11 / -0.23 / -0.32 / -0.30 / -0.31 / -0.07 | -0.19 | 0/18 |
| KQSDSVLGESRNKNSVA | DASTRES | QQYHRLPLS | 0.30 / 0.16 / 0.21 / 0.11 / 0.15 / 0.28 | 0.20 | 1/18 (3.56) |
| KLSQQWLYESRNKNSVA | GASTRED | QQYHRLPLS | -0.32 / -0.28 / -0.50 / -0.45 / -0.35 / -0.23 | -0.36 | 0/18 |
| KISQSQLYESRNKNSVA | GASTRES | QQYHRLTLS | n.d. / n.d. / 1.82 / 2.43 / n.d. / 1.24 | 1.83 | 0/18 |
| KSQTGVLYESRNKNSVA | GASTRES | QQYHRLPLS | 0.03 / -0.27 / -0.31 / -0.54 / -0.48 / -0.39 | -0.33 | 0/18 |
| HSSPSVLYESRNKNSVA | NASTRES | QQYHRLPLV | 0.39 / -0.01 / 0.23 / 0.06 / -0.04 / 0.13 | 0.13 | 0/18 |
| KSSISMLGEKRNKNSVA | EASTRES | QQYHRLPLS | 0.21 / 0.12 / 0.03 / -0.09 / -0.09 / 0.11 | 0.05 | 1/18 (5.03) |
| HSSPSDLYESRNKNSVA | NASTRES | QQYHRLPLS | 0.12 / 0.22 / 0.11 / 0.06 / 0.07 / 0.19 | 0.13 | 2/18 (2.81) |
| KVRQSTLYESRNKNSVA | WASVRES | QQYHRLPLS | 1.23 / 0.41 / 0.84 / 0.42 / 1.49 / 1.90 | 1.05 | 0/18 |
| KLSQSFLYESRNKNSVA | GGSTRES | QQYHRLPLS | 0.22 / 0.13 / 0.16 / -0.12 / -0.06 / 0.28 | 0.10 | 2/18 (2.23) |
| HSSQSVPYESRNKNSVA | NASTRES | QQYHRLPLS | 0.01 / -0.08 / -0.19 / -0.29 / -0.16 / 0.13 | -0.10 | 1/18 (2.13) |
| KSLQSELYESRNFNSVA | HASTRED | QQYHRLPLS | 0.53 / 1.45 / 0.59 / 0.91 / 1.05 / 0.85 | 0.90 | 1/18 (3.01) |
| KSSISYLEESRNKNSVA | EASTREW | QQYHRLPLS | 0.02 / -0.18 / -0.09 / -0.15 / -0.47 / -0.12 | -0.17 | 0/18 |
| KLQQSQEYESRNKNSVA | HASTRLD | QQYHRLPLS | -0.08 / -0.18 / -0.36 / -0.39 / -0.45 / -0.22 | -0.28 | 1/18 (3.25) |
| KSLGSMLYESRNKNSVA | HASTRED | QQYHRLPLS | 0.02 / -0.07 / -0.22 / -0.30 / -0.09 / 0.01 | -0.11 | 4/18 (3.50) |
| KSSYSELYESRNKNSVA | DASTRES | QQYHRLPLS | 0.01 / -0.56 / -0.40 / -0.35 / -0.45 / 0.07 | -0.28 | 0/18 |
| KFSQWMLYESRTKNSVA | DASTRES | QQYHRLPLS | 0.05 / -0.08 / 0.02 / -0.38 / -0.13 / 0.08 | -0.07 | 1/18 (2.94) |

The opening 5 entries, copied out:

CDR-L1	CDR-L2	CDR-L3	log10 Kd (nM) by replicate	mean log10 Kd (nM)	empty controls
KSSLSGLYESRMKNSVA	EASTRES	QQYHRLPLS	0.06 / 0.36 / 0.03 / -0.21 / -0.06 / 0.25	0.07	0/18
KVLQSVMYESRNKNSVA	HASTRED	QQYHQLPLS	1.00 / 0.81 / 0.66 / 0.54 / 0.82 / 0.95	0.80	2/18 (2.89)
KLLNSTLYESRQKNSVA	WASTRES	QQYHRLPLS	n.d. / 2.10 / n.d. / 2.15 / 1.78 / 1.88	1.98	3/18 (2.17)
KSSWSVLYESGNKNSVA	HASTRES	QQYHRLPLS	0.58 / 0.52 / 0.50 / 0.73 / 0.91 / 0.59	0.64	1/18 (2.87)
KFSPSVLYESRMSNSVA	NASTRES	QQYHRLPLS	0.57 / 0.18 / 0.25 / 0.14 / 0.38 / 0.58	0.35	2/18 (2.28)

Empty control strains, which show no peptide, gave a signal in 4% of pairings with all light chain designs; the median was 2.64 and 95% of these signals were weaker than 1.59. No background was subtracted. Also given: how often the same scFv was detected with the empty control strains, with their mean in brackets.
Values of this round are not directly comparable with the first-round values of the same sequences.
The authors' rule: three or more of the six replicates give a measured affinity, fewer mean a poor binder.

Reference: Li et al. 2023, doi:10.1038/s41467-023-39022-2. File: FLAb, binding data.